assay: Solubility of peptidic cores in water

| SMILES | solubility in water |
| --- | --- |
| CC(=O)N[C@@H](CCCCN)C(=O)NCCC(=O)NCCC(=O)N[C@@H](CCCCN)C(=O)NCCC(=O)NCCC(=O)N[C@@H](CSSc1ccccn1)C(N)=O | sparingly soluble |
| CC(=O)N[C@@H](CCCCN)C(=O)NCCC(=O)NCCC(=O)N[C@@H](CCCCN)C(=O)NCCC(=O)NCCC(=O)N[C@@H](CCCCN)C(=O)NCCC(=O)NCCC(=O)N[C@@H](CCCCN)C(=O)NCCC(=O)NCCC(=O)N[C@@H](CSSc1ccccn1)C(N)=O | freely soluble |
| CC(C)(C)SSC[C@H](NC(=O)OCC1c2ccccc2-c2ccccc21)C(=O)NCCC(=O)N[C@@H](CCCCN)C(=O)NCCC(=O)N[C@@H](CCCCN)C(=O)NCCC(=O)N[C@@H](CCCCN)C(=O)NCCC(=O)N[C@@H](CCCCN)C(=O)NCCC(=O)N[C@@H](CCCCN)C(=O)NCCC(=O)N[C@@H](CCCCN)C(N)=O | freely soluble |
